Literature values in patent publication US9465025B2, “Stable neural stem cell lines” (Neuralstem, Inc., priority 1996, dated 2016).

Target: T1, ligand binding fragment of the human progesterone receptor (Homo sapiens, UniProt P06401)
T1 sequence (P06401 679-913 limits assumed): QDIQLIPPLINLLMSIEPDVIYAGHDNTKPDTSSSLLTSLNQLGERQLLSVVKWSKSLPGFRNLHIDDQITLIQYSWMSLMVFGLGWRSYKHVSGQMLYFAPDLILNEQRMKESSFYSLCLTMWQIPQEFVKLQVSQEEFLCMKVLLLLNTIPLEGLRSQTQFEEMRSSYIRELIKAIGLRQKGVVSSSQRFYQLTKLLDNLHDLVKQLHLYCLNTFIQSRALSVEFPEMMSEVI
Details: Wang et al. 1994; cited from earlier work

SMILES | activation of receptor fragment
CC#C[C@]1(O)CC[C@H]2[C@@H]3CCC4=CC(=O)CCC4=C3[C@@H](c3ccc(N(C)C)cc3)C[C@@]21C [RU38486] | sensitively activated
CC(=O)[C@H]1CC[C@H]2[C@@H]3CCC4=CC(=O)CC[C@]4(C)[C@H]3CC[C@]12C [progesterone] | does not respond
